# scFv variants of Ab-14 (light chain) against a SARS-CoV-2 spike peptide

The measurements come from Li et al. 2023 (doi:10.1038/s41467-023-39022-2) through the FLAb antibody collection.

Target peptide (SARS-CoV-2 spike, HR2 region): PDVDLGDISGINAS

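This is the validation round: designs drawn from the data on random variants, tested in the same kind of assay. Their group label is 14L_Ctrl (Ctrl: baseline library sampled from a position-specific scoring matrix, with some repeated check sequences). In AlphaSeq, yeast of one mating type display the scFv and yeast of the other type display the target. The frequency of each diploid, read from paired DNA barcodes, reflects how well the two displayed proteins bind. Each replicate has its own calibration line, from reference interactions of the BCL2 family. Mating was done six times.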

The variants keep the heavy chain, the linker and the frameworks of Ab-14 (scFv order VH, a 15-residue (Gly4Ser)3 linker, VL).
VH: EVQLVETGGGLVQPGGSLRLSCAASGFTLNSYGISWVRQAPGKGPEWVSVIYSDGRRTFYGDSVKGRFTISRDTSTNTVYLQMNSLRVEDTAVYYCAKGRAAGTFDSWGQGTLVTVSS
VL: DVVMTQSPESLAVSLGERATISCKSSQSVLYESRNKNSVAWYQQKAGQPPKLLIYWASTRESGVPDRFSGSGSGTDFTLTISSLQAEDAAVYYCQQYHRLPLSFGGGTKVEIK

Changes read parent residue, position, new residue, counted from the first residue of the VL shown.
Values are log10 of the apparent Kd in nM; lower means stronger binding.
Averages over replicates are reported, and they cover detected replicates only.
A pair that was not seen in that replicate is written "ND"; this usually means weak binding, but a binder can also be missed.
Background: pairings of all light chain designs with three empty control strains gave a value in 4% of cases (median 2.64, 5th percentile 1.59). Values in that range, when seen in few replicates, are hard to tell from nonspecific mating. Also given: how often the same scFv was detected with the empty control strains, with their mean in brackets.

| # | changes | log10 Kd (nM) by replicate | mean, log10 nM | empty controls |
|---|---|---|---|---|
| 1 | R34G+N35Q+W56A+S62Q+P101L | 0.92 / 0.46 / 0.40 / 0.41 / 0.17 / 0.74 | 0.52 | 0/18 |
| 2 | L30G+E32F | 2.47 / 1.70 / 2.35 / 3.05 / ND / 2.33 | 2.38 | 1/18 (2.69) |
| 3 | K24D+E32D+W56N+Y97C | 2.68 / ND / 1.93 / 2.69 / ND / 1.93 | 2.31 | 1/18 (2.92) |
| 4 | L102N | ND / ND / ND / ND / ND / ND | ND | 0/18 |
| 5 | S26N+E32D+W56N+T59V+R60P+P101W | 1.53 / 1.24 / 1.16 / 1.16 / 1.28 / 1.34 | 1.29 | 0/18 |
| 6 | W56Y+H98A+L102T | ND / ND / ND / ND / 2.03 / ND | 2.03 | 0/18 |
| 7 | Y31N+W56G+Q95N | 2.34 / ND / ND / ND / ND / ND | 2.34 | 1/18 (2.90) |
| 8 | K24E+S38G+W56A+Y97E | ND / ND / ND / ND / ND / ND | ND | 0/18 |
| 9 | S26P+W56A | -0.07 / -0.04 / -0.33 / 0.09 / 0.13 / 0.03 | -0.03 | 2/18 (2.36) |
| 10 | S25L+S38A+W56T+R99W | 0.51 / 0.36 / 0.20 / 0.53 / 0.38 / 0.30 | 0.38 | 1/18 (2.44) |
| 11 | N35G+W56A+S58T+Y97K | 1.35 / 2.22 / 0.75 / 2.18 / 1.64 / 2.58 | 1.79 | 0/18 |
| 12 | W56E+Q95A | 1.77 / 1.71 / 1.63 / 2.34 / 1.91 / 2.36 | 1.95 | 0/18 |
| 13 | S25I+W56H | -0.06 / -0.25 / -0.25 / -0.28 / -0.27 / 0.16 | -0.16 | 2/18 (2.82) |
| 14 | W56H+E61F | 1.90 / 2.27 / 1.97 / 1.87 / 1.44 / 2.00 | 1.91 | 2/18 (3.78) |
| 15 | S25F+K36T | ND / 2.48 / 2.24 / 2.56 / ND / 2.68 | 2.49 | 1/18 (2.33) |
| 16 | V29I+R60H+R99Y | ND / ND / ND / ND / ND / ND | ND | 0/18 |
| 17 | L30W+N35S+E61W | ND / 1.62 / 4.00 / ND / ND / ND | 2.81 | 1/18 (2.00) |
| 18 | E32H+Q96S | ND / ND / 1.88 / ND / ND / 2.82 | 2.35 | 1/18 (2.38) |
| 19 | S28G+R34M | 1.61 / 1.08 / 1.50 / 1.36 / 1.90 / 1.82 | 1.55 | 0/18 |
| 20 | Y31D+K36F | 1.71 / 1.16 / 1.50 / 1.78 / 0.79 / 0.74 | 1.28 | 0/18 |
| 21 | V29E+Y31D+R34I+W56N+T59C+R99G | 0.50 / 0.43 / 0.25 / 0.15 / 0.18 / 0.79 | 0.39 | 1/18 (2.59) |
| 22 | Y31R+E32P+H98E | ND / ND / ND / ND / ND / ND | ND | 0/18 |
| 23 | S25F+L30Y+S33E+H98Y | 0.86 / 0.99 / 0.43 / 0.69 / 0.40 / 0.63 | 0.67 | 0/18 |
| 24 | V29G+L30A+W56Q+S62C+Q96E+H98F | 0.47 / 0.19 / 0.02 / -0.13 / 0.35 / 0.08 | 0.16 | 2/18 (2.82) |
| 25 | V29E+S33Y | ND / ND / ND / 3.33 / ND / ND | 3.33 | 0/18 |
| 26 | Q27P+W56M | ND / ND / ND / 2.19 / 2.84 / 1.79 | 2.28 | 0/18 |
| 27 | S58Y+Q95D | ND / ND / ND / ND / ND / ND | ND | 0/18 |
| 28 | S25T+Q27G+K36Y+W56G | 0.84 / 1.28 / 0.77 / 1.03 / 0.57 / 0.80 | 0.88 | 2/18 (2.66) |
| 29 | K24V+S25M+S33E+N37E+S62G | ND / ND / ND / ND / 2.39 / ND | 2.39 | 0/18 |
| 30 | S25F+W56S+Q95G | 0.16 / 0.10 / 0.06 / 0.02 / 0.05 / 0.19 | 0.10 | 1/18 (2.07) |
| 31 | S25I+V29L+R34S+W56A | 0.39 / 0.22 / 0.24 / 0.10 / 0.18 / 0.54 | 0.28 | 1/18 (2.27) |
| 32 | N37Q+T59L | ND / ND / ND / ND / 3.57 / ND | 3.57 | 0/18 |
| 33 | S26Y+L30E+N37K+A57G+E61S | ND / ND / ND / ND / ND / ND | ND | 1/18 (1.20) |
| 34 | Q27Y+Y31P+K36A | ND / ND / 4.23 / ND / ND / ND | 4.23 | 1/18 (2.46) |
| 35 | S25L+Q27M+R34A+S38P+Q96N+Y97H | ND / 3.93 / ND / ND / ND / ND | 3.93 | 1/18 (2.03) |
| 36 | Q27H+K36C | 2.44 / 1.70 / 3.65 / 2.11 / 2.91 / 1.91 | 2.45 | 1/18 (2.58) |
| 37 | S25F+Q27T+V29R+Y31N+E61H | 2.10 / 2.67 / 1.35 / 2.26 / 1.97 / 1.63 | 2.00 | 0/18 |
| 38 | Q27D+L30G+E61V+S62E+P101C | ND / ND / ND / ND / ND / ND | ND | 0/18 |
| 39 | L30S+S58M | ND / ND / ND / ND / 1.73 / ND | 1.73 | 2/18 (1.68) |

The closing 4 entries, repeated:

| changes | log10 Kd (nM) by replicate | mean, log10 nM | empty controls |
|---|---|---|---|
| Q27H+K36C | 2.44 / 1.70 / 3.65 / 2.11 / 2.91 / 1.91 | 2.45 | 1/18 (2.58) |
| S25F+Q27T+V29R+Y31N+E61H | 2.10 / 2.67 / 1.35 / 2.26 / 1.97 / 1.63 | 2.00 | 0/18 |
| Q27D+L30G+E61V+S62E+P101C | ND / ND / ND / ND / ND / ND | ND | 0/18 |
| L30S+S58M | ND / ND / ND / ND / 1.73 / ND | 1.73 | 2/18 (1.68) |

A sequence measured in both rounds can read differently, since the two assays cover different ranges.
In the paper, a design with two or fewer of six values counts as a poor binder.